System: skin, oral, and lung SCC cells
Test: Spheroid formation assays of SCC cells in Matrigel
Type: cell-based, human

Oc1ccc(C2Oc3ccc(O)cc3C3CCCC32)cc1 (centres unmarked)
time at which effects started to show in the spheroid formation: 5 days | spheroid formation (1 uM concentration): completely suppressed | efficacy in spheroid formation assays (all cell lines tested (skin, oral, and lung SCC cells)): striking efficacy | lung SCC cell line growth (spheroid assays, FIG. 18B): suppression | skin and oral SCC cell line growth (spheroid assays, FIGS. 18A and 18C): suppression

From patent US10188747B2, “Methods and compositions for the treatment of cancer” (THE GENERAL HOSPITAL CORPORATION, priority 2014, dated 2019)
